Measurements published in paper PMC6586500 (SLAS discovery : advancing life sciences R & D, 2019).

Biological target: T1, CBX4 (Homo sapiens, UniProt O00257)
T1 sequence (O00257 8-65): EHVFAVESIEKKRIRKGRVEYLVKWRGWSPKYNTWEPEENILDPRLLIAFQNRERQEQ
Test: TR-FRET competition assay, CBX4 chromodomain with UNC4195 tracer
Type: binding

Question: How did the IC50 turn out when `CCN(CC)CCCC[C@H](NC(=O)[C@H](CC(C)C)NC(=O)[C@H](C)NC(=O)[C@H](Cc1ccccc1)NC(=O)c1ccc(C(C)(C)C)cc1)C(=O)N[C@@H](CO)C(=O)OC` [UNC3866] was run?
Answer: The IC50 was 60 nM.
